Cyclic peptide permeability, from CycPeptMPDB

Values of Hewitt et al. 2015, doi:10.1021/ja508766b, as listed in CycPeptMPDB.

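The data file gives no further conditions (lipid, pH, time, direction or concentration), and values from different papers need not be comparable. Other peptides of the study may be missing here. Peptides that the database sets to -10, its floor, are left out.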

Caco-2 values are permeabilities across monolayers of Caco-2 human intestinal cells.
Permeability is given as log10 of P in cm/s; higher (less negative) is more permeable.

* CC(C)C[C@@H]1C(=O)N[C@H](CC(C)C)C(=O)N[C@@H](Cc2ccc(O)cc2)C(=O)N2CCC[C@@H]2C(=O)N(C)[C@@H](CC(C)C)C(=O)N(C)[C@H](CC(C)C)C(=O)N1C: Caco-2 -4.79 (log10 cm/s)
* CC(C)C[C@@H]1NC(=O)[C@@H](CC(C)C)N(C)C(=O)[C@@H](CC(C)C)N(C)C(=O)[C@H](CC(C)C)N(C)C(=O)[C@H]2CCCN2C(=O)[C@H](Cc2ccc(O)cc2)NC1=O: Caco-2 -5.67 (log10 cm/s)
* CC(C)C[C@@H]1NC(=O)[C@@H](CC(C)C)N(C)C(=O)[C@H](CC(C)C)N(C)C(=O)[C@H]2CCCN2C(=O)[C@H](Cc2ccc(O)cc2)NC(=O)[C@@H](CC(C)C)N(C)C1=O: Caco-2 -5.95 (log10 cm/s)
* CC(C)C[C@@H]1NC(=O)[C@H](CC(C)C)N(C)C(=O)[C@H]2CCCN2C(=O)[C@H](Cc2ccc(O)cc2)NC(=O)[C@H](CC(C)C)N(C)C(=O)[C@@H](CC(C)C)N(C)C1=O: Caco-2 -4.70 (log10 cm/s)
* CC(C)C[C@@H]1NC(=O)[C@H](CC(C)C)N(C)C(=O)[C@@H](CC(C)C)N(C)C(=O)[C@H](CC(C)C)N(C)C(=O)[C@H]2CCCN2C(=O)[C@H](Cc2ccc(O)cc2)NC1=O: Caco-2 -6.42 (log10 cm/s)
* CC(C)C[C@@H]1NC(=O)[C@@H](CC(C)C)N(C)C(=O)[C@H](CC(C)C)N(C)C(=O)[C@H]2CCCN2C(=O)[C@H](Cc2ccc(O)cc2)NC(=O)[C@H](CC(C)C)N(C)C1=O: Caco-2 -5.69 (log10 cm/s)
* CC(C)C[C@@H]1C(=O)N[C@@H](Cc2ccc(O)cc2)C(=O)N2CCC[C@@H]2C(=O)N(C)[C@@H](CC(C)C)C(=O)N(C)[C@H](CC(C)C)C(=O)N[C@H](CC(C)C)C(=O)N1C: Caco-2 -6.36 (log10 cm/s)
* CC(C)C[C@@H]1C(=O)N[C@H](CC(C)C)C(=O)N(C)[C@@H](CC(C)C)C(=O)N[C@@H](Cc2ccc(O)cc2)C(=O)N2CCC[C@@H]2C(=O)N(C)[C@@H](CC(C)C)C(=O)N1C: Caco-2 -6.26 (log10 cm/s)
* CC(C)C[C@@H]1C(=O)N(C)[C@@H](CC(C)C)C(=O)N[C@H](CC(C)C)C(=O)N[C@@H](Cc2ccc(O)cc2)C(=O)N2CCC[C@@H]2C(=O)N(C)[C@@H](CC(C)C)C(=O)N1C: Caco-2 -4.63 (log10 cm/s)